Key:
[1] = molecular target: KCa3.1 (Homo sapiens, UniProt O15554); assay: patch-clamp electrophysiology
[2] = molecular target: KCa2.2 (Homo sapiens, UniProt Q9H2S1); assay: patch-clamp electrophysiology

Question: Which results are given for TFINHKCKSSSECLPACKAAIGRASGKCINSTCKCYY [Cm39]?
Answer: Kd [1]: 59 nM; Kd [2]: 575 nM

Reference: article PMC10975748 (2024)
